Reference: patent US20150140123A1, “Protein expression analyses for identifying genotoxic compounds” (Merck Patent GmbH, priority 2012, published 2015)

Test system: HepG2 cells
Conditions: human, 48 h
Protocol: HepG2 cells (Order No. HB-8065, Lot. 58483209, ATCC, Manassas, USA) were cultured in DMEM/F12 with L-Glutamine and 15 mM Hepes supplemented with 10% (v/v) FBS, 1% (v/v) penicillin (10 kU/ml)/streptomycin (10 mg/ml) solution, 0.1% (v/v) gentamicin (50 mg/ml), and 1 mM sodium pyruvate at 37° C. and 5% CO2 in culture flasks. Depending on the experiment, an appropriate number of cells were seeded onto plates after detaching of the cells using trypsin and cells were cultured at 37° C. and 5% CO2 for 24 h prior to treatment. All experiments were performed three times with cells of passages 4-20.
Cells were seeded onto black Poly-D-Lysin coated 96-well-plates (BD Biocoat, Franklin Lakes, USA) (0.02×10^6 cells/well) and left 24 h for adherence and then treated with test compounds at a maximum concentration of 1 mM which is recommended by the ICH S2(R1) guideline (EMA, 2011). […]
After treatment, cells were rinsed with PBS (Gibco Invitrogen, Karlsruhe, Germany), and then stained with 10 μM CellTracker Green 5-Chloromethylfluorescein Diacetate (CMFDA) (Invitrogen, Karlsruhe, Germany) in cell culture media for 30 min. […] After an incubation of 1 h, followed by two additional washing steps with 0.05% Tween 20, cells were washed with PBS and finally PBS was added and cells were measured.
Image acquisition was performed on the ArrayScan VTI HCS Reader (Cellomics, Pittsburgh, USA) using a 20× objective. […]

CC[C@H]1OC(=O)[C@H](C)[C@@H](O[C@H]2C[C@@](C)(OC)[C@@H](O)[C@H](C)O2)[C@H](C)[C@@H](O[C@@H]2O[C@H](C)C[C@H](N(C)C)[C@H]2O)[C@](C)(O)C[C@@H](C)C(=O)[C@H](C)[C@@H](O)[C@]1(C)O [Erythromycin stearate]
CMFDA +S9 highest conc. <50% cytotox. over control: 125 µM | SCC +S9 highest conc. <50% cytotox. over control: 125 µM
